Test results: PubChem BioAssay AID493098 (Sanford-Burnham Center for Chemical Genomics, 2011)
Only a part is listed here, and it is no random draw. The source made the active and inactive calls.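 The calls were made as follows: active = compounds whose inhibition of the agonist-driven luminescence signal at 20 µM reaches about 50% (limit read from the data); inactive = the rest.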

By UniProt entry, the sequences of proteins in these tests, tags left out. Where a name states a change or a piece, a line headed by the entry shows the natural chain unless it says otherwise.
UniProt P51684: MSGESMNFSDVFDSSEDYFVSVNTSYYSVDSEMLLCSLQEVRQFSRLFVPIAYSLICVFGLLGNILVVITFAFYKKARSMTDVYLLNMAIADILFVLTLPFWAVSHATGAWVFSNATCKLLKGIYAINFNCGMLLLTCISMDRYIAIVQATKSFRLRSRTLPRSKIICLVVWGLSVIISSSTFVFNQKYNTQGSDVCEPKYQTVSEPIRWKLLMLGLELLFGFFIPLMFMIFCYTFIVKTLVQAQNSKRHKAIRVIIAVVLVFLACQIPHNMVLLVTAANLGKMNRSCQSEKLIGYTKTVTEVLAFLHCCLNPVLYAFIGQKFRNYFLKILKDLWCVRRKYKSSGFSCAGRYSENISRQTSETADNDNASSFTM

biological target: C-C chemokine receptor type 6 (Homo sapiens) (UniProt P51684); assay: CCR6 receptor antagonists, primary screen, cell-based, CHO-K1, luminescence, beta-arrestin, uHTS (AID 493098); settings: CHO-K1 CCR6 PathHunter beta-arrestin, CCL20-stimulated, at 20 µM, active compounds read high;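 also: cells stimulated with CCL20 at 14 nM final; plate controls were DMSO with CCL20 for no effect and DMSO without agonist for full effect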

SMILES	inhibition
Oc1ccccc1CNc1ccccn1	inactive: 0.27%
CC(C)CC(=O)NC(Sc1ccc(Cl)cc1)C(Cl)(Cl)Cl (stereo unspecified)	inactive: 12%
Nc1cc(N)c2nonc2c1[N+](=O)[O-]	inactive: -7.59%
Cc1ccc(NP(=O)(Oc2ccccc2F)Oc2ccccc2F)nc1	inactive: 4.76%
CN(C(=O)Cc1ccc(Cl)c(Cl)c1)[C@H]1CCCC[C@@H]1N1CCCC1	inactive: 8.5%
CCOP(=O)(Nc1ccccc1)OCC	inactive: 10.2%
Cc1cc(SC(NC(=O)c2ccc(F)cc2)C(Cl)(Cl)Cl)ncn1 (stereo unspecified)	inactive: -4.42%
O=P(Nc1nc2ccc(Cl)cc2s1)(c1ccccc1)c1ccccc1	inactive: 15.9%
CCCC1OP(N)(=O)OCC1CC (stereo unspecified)	inactive: 3.84%
O=C(O)c1ccccc1[As](=O)(O)O	inactive: 13.6%
CC(=O)Nc1ccc([As](=O)(O)O)cc1	inactive: -6.24%
Nc1cccc2ccc([As](=O)(O)O)cc12	inactive: -8.54%
CCN(N=Nc1nonc1N)c1nonc1N	inactive: 8.7%
O=P1(N(CCCl)CCCl)OCCC2CCCCN21 (stereo unspecified)	inactive: -0.53%
Cc1ccc(NP(=O)(Oc2cccc(C)c2)Oc2cccc(C)c2)nc1	inactive: 0.88%
c1ccc(-c2nn[nH]n2)c(-c2nn[nH]n2)c1	inactive: 12.7%
CCNC(=S)/N=C(\N)N[N+](=O)[O-]	inactive: 18.8%
O=C(NC1CCS(=O)(=O)C1)NP(=S)(Oc1ccccc1)Oc1ccccc1 (stereo unspecified)	inactive: -7.01%
CN(C)C(=O)Oc1noc2ccccc12	inactive: 0.69%
O=c1c2cc([N+](=O)[O-])ccc2[nH]c2c([N+](=O)[O-])cc([N+](=O)[O-])cc12	active: 61.2%
Cc1ccccc1OP(=O)(Nc1ccccn1)Oc1ccccc1C	inactive: 16.1%
CC(NC(=O)COC(=O)C(O)(c1ccccc1)c1ccccc1)c1ccccc1 (stereo unspecified)	inactive: 12.1%

SMILES	inhibition
CCC(=O)N1C2C3N(C(=O)CC)C1C1N(C(=O)CC)C(C(N1C(=O)CC)N3C(=O)CC)N2C(=O)CC	inactive: -2.18%
O=C(OC1CN2CCC1CC2)c1ccccc1 (stereo unspecified)	inactive: 16%
Cc1ccc(OP(=O)(Nc2ccccn2)Oc2ccc(C)cc2)cc1	inactive: 1.48%
CC(=O)NC(SC(=S)N(CC(C)C)CC(C)C)C(Cl)(Cl)Cl (stereo unspecified)	inactive: 15%
COC(=O)c1cc2c(s1)N=C(c1ccccc1)N(C)P2(=O)N1CCOCC1 (stereo unspecified)	inactive: 20.2%
CC(C)(C)C(=O)NC(Sc1ccccc1)C(Cl)(Cl)Cl (stereo unspecified)	inactive: 7.65%
CCc1cc(O)c([N+](=O)[O-])c(C)c1[N+](=O)[O-]	inactive: 19.8%
CCOc1ccc(C2=NCC(CBr)S2)cc1 (stereo unspecified)	inactive: 0.71%
O=P1(Nc2nc3ccc(Cl)cc3s2)COc2ccccc2O1 (stereo unspecified)	inactive: -0.01%
CC(=O)Nc1ccc(Oc2c([N+](=O)[O-])cc([N+](=O)[O-])cc2[N+](=O)[O-])cc1	inactive: 20.1%
CC(=O)Nc1ccc([As](=O)(O)O)c(O)c1	inactive: -2.08%
C[C@@H]1C=CCP(=O)(Oc2ccccc2)O1 (stereo partly specified)	inactive: 2.7%
C[C@H]1OP(=O)(Oc2ccccc2)C[C@@H]2O[C@@H]21 (stereo partly specified)	inactive: 2.52%
Cc1ccccc1CN(C)C(=O)COC(=O)C(O)(c1ccccc1)c1ccccc1	inactive: 17.4%
COC(=O)C1(C)COP(=O)(NCc2ccccc2)OC1 (stereo unspecified)	inactive: 2.43%
N#C/C(=C\c1ccc(N(CCBr)CCBr)cc1)C(N)=O	inactive: 3.65%
CC(=O)c1ccc(N2CC2c2ccncc2)cc1 (stereo unspecified)	inactive: -5.6%
c1nnnn1CCn1cnnn1	inactive: 2.88%
CC(C)C(=O)NC(Sc1ccccc1)C(Cl)(Cl)Cl (stereo unspecified)	inactive: 12.5%
O=P(Nc1nccs1)(c1ccccc1)c1ccccc1	inactive: 17.5%
C[C@H]1OP(=O)(Oc2ccccc2)[C@H](O)[C@H](O)[C@H]1N=[N+]=[N-] (stereo partly specified)	inactive: -0.9%
O=P(Nc1nc2ccccc2s1)(c1ccccc1)c1ccccc1	inactive: 2.34%

SMILES	inhibition
O=P(Nc1ccccn1)(c1ccc(Br)cc1)c1ccc(Br)cc1	inactive: 9.22%
CN(C)C1(CNC(=O)c2ccc(Cl)c(S(N)(=O)=O)c2)CCCCC1	inactive: 7.1%
COc1ccc(N)c([N+](=O)[O-])c1[N+](=O)[O-]	inactive: 27.3%
O=C(OC1CN2CCC1CC2)c1cccc(Cl)c1 (stereo unspecified)	inactive: 9.05%
Nc1ccc([As](=O)(O)c2ccc([N+](=O)[O-])cc2)cc1	inactive: -3.85%
C(Cc1nn[nH]n1)Cc1nn[nH]n1	inactive: 6.73%
O=[As](O)(c1ccccc1)c1ccc(O)cc1	inactive: -0.9%
O=[N+]([O-])c1ccc(O)c(/C=N/Nc2ccc([N+](=O)[O-])cc2[N+](=O)[O-])c1	active: 52.1%
O=[N+]([O-])c1ncn(CCn2cnc([N+](=O)[O-])n2)n1	inactive: -5.8%
CC(=O)NC(SC(=S)N(C)C)C(Cl)(Cl)Cl (stereo unspecified)	inactive: 19.1%
CN(C)C1(CNC(=O)c2ccc(S(C)(=O)=O)cc2)CCCCC1	inactive: 4.75%
CCCC1OP(=O)(Nc2ccccc2)OCC1CC (stereo unspecified)	inactive: 14.5%
O=C(/C=C/c1ccccc1)OC1CN2CCC1CC2 (stereo unspecified)	inactive: 11.6%
CC1CCC(C(C)C)C(OP(=O)(Nc2ccccn2)c2ccccc2)C1 (stereo unspecified)	inactive: 13%
Cc1ccc(C(=O)OC2CN3CCC2CC3)cc1 (stereo unspecified)	inactive: 2.39%
Cc1nn(-c2ccccc2)c2c1P(=O)(N1CCOCC1)N(C)C(c1ccccc1)=N2 (stereo unspecified)	inactive: -3.75%
Nc1cccc([As](=O)(O)c2ccccc2)c1	inactive: -2.8%
O=P1(Nc2ccc(Br)cn2)COc2ccccc2OC1	inactive: -4.36%
NS(=O)(=O)c1cccc(NC(=O)COC(=O)C(O)(c2ccccc2)c2ccccc2)c1	inactive: 12.5%
O=[As](O)(c1cccs1)c1cccs1	inactive: 11.3%
Cc1ccc(OCC(=O)OC2CN3CCC2CC3)cc1 (stereo unspecified)	inactive: 5.13%
O=P1(Nc2ncccn2)COc2ccccc2OC1	inactive: -4.74%
